# According to patent publication EP1135374B9, “BENZIMIDAZOLE COMPOUNDS THAT ARE VITRONECTIN RECEPTOR ANTAGONISTS” (SCHERING CORPORATION, priority 1998, dated 2000):
# Amino acid sequences for entries named in this document (tags omitted). Residues count along the entry.
# UniProt P05106, 27-788 limits assumed: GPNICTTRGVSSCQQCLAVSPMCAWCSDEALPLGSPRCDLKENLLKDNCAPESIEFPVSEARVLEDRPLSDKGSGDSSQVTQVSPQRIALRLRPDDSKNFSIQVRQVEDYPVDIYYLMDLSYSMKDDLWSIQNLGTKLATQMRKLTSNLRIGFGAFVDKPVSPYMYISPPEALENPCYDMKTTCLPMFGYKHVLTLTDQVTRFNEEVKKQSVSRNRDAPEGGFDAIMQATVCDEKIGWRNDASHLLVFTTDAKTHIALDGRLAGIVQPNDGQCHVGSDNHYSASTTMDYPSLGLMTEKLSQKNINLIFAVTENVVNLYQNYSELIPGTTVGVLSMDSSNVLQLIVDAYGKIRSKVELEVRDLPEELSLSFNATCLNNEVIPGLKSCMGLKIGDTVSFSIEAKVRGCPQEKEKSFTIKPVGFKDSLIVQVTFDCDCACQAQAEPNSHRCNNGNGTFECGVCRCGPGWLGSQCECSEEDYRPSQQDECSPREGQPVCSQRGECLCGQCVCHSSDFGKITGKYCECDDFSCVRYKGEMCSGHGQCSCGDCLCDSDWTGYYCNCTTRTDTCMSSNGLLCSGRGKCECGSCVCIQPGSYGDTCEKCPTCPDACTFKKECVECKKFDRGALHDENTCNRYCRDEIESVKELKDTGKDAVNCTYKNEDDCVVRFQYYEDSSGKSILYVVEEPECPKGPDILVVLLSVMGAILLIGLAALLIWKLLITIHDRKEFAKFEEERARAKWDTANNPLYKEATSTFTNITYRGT
# UniProt P08514, 32-887 limits assumed: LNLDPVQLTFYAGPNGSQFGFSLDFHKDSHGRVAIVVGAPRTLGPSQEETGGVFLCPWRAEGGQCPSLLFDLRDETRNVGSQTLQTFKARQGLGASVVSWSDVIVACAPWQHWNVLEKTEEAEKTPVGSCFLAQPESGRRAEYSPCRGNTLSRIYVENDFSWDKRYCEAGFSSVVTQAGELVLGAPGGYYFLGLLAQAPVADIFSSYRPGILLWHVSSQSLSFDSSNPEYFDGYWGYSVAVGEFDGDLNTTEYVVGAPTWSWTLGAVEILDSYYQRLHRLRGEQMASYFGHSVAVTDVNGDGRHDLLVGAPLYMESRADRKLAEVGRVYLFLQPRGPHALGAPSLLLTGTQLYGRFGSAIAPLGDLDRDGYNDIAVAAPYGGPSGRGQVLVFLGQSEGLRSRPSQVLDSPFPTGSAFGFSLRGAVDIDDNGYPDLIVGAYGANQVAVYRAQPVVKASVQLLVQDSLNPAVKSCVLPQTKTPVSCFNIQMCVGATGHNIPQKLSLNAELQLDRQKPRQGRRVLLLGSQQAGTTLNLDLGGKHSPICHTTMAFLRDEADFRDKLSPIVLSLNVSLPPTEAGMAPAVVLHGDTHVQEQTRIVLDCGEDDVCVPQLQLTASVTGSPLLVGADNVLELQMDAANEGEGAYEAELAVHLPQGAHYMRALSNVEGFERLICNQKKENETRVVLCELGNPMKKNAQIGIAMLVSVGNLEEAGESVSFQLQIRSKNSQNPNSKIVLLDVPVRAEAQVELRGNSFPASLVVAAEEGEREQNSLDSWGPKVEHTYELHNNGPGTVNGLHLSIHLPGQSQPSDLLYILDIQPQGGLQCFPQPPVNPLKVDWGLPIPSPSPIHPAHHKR
# UniProt P08514, 891-1039 partner limits assumed: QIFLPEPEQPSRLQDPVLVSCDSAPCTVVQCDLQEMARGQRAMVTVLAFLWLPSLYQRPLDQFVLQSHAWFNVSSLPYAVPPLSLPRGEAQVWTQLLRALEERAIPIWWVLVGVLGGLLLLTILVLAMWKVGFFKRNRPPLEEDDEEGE
# Target: purified αllbβ3 receptor (Homo sapiens, UniProt P05106+P08514)
# Assay: similar competitive binding assay with 125I-echistatin on αllbβ3 receptor, used for the specificity index
# Conditions: Table 10; specificity index IC50 αllbβ3/ IC50 αvβ3
# Procedure: To measure the relative affinity of the test compounds for αvβ3 receptors versus affinity for αllbβ3 receptors, similar competitive assays were carried out using purified αllbβ3 receptor and ^125I-echistatin (iodinated using the lactoperoxidase method). The specificity index, which is a measure of the relative binding affinity for αvβ3, versus αllbβ3, may be determined by dividing the IC50 value for αllbβ3 by the IC50 value for αvβ3.
row,Compound,SPECIFICITY αIIbβ3 / αvβ3
1,CCCC(=O)N(Cc1ccc(C(=O)NC[C@H](NC(=O)OCc2ccccc2)C(=O)O)cc1)Cc1nc2ccccc2[nH]1,70
2,CN(C)C(=O)N(Cc1ccc(C(=O)NC[C@H](NC(=O)OCc2ccccc2)C(=O)O)cc1)Cc1nc2ccccc2[nH]1,19
3,O=C(N[C@@H](CNC(=O)c1ccc(CN(Cc2nc3ccccc3[nH]2)C(=O)C(F)(F)F)cc1)C(=O)O)OCc1ccccc1,87
